Reference: patent US10913711B2, “Potent and selective inhibitors of monoamine transporters; method of making; and use thereof” (priority 2013, dated 2021)

Sequences of proteins named here, by UniProt entry; tags and fusion partners are left off.
UniProt Q9WTR4, entry or part of it: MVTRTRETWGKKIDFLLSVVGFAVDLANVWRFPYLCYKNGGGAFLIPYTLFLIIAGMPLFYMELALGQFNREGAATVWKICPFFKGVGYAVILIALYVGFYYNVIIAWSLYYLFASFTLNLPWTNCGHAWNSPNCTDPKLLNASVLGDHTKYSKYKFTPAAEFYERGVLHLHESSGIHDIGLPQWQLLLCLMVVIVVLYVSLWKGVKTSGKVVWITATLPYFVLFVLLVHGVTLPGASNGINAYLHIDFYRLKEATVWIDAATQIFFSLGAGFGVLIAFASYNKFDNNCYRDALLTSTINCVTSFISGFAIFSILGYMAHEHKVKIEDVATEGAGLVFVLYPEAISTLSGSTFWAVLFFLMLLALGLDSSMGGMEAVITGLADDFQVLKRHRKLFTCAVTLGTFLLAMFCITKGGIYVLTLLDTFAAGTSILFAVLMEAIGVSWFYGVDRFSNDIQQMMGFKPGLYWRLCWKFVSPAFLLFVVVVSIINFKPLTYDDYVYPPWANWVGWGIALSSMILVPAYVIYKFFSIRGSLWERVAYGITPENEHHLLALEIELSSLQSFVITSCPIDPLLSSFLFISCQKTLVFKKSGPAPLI
UniProt P23977, whole entry: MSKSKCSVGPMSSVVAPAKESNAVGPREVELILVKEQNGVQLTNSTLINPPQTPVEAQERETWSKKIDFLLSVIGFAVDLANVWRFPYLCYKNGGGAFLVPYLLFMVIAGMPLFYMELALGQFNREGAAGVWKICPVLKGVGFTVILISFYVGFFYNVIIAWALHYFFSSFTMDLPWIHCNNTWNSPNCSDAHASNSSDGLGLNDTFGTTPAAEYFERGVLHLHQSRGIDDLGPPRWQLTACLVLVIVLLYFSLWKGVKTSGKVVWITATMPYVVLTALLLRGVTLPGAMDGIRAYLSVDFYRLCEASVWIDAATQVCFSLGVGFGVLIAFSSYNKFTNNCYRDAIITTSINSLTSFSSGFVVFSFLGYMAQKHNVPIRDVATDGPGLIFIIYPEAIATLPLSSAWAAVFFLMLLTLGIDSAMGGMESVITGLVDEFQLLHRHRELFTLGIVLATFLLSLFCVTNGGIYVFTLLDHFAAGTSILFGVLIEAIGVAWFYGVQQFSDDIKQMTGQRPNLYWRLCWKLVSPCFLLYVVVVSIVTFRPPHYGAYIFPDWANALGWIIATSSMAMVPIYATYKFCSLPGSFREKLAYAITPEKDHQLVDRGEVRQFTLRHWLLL

Key:
NET = NET (Rattus norvegicus (Rat), UniProt Q9WTR4); assay: Norepinephrine Transporter Binding Assay ([3H]Nisoxetine, rat frontal cortex membranes)
DAT = DAT (Rattus norvegicus (Rat), UniProt P23977); assay: Dopamine Transporter Binding Assay ([3H]WIN 35428, rat striatal membranes); settings: selectivity ratio of Ki values, rat brain membranes

SMILES	Ki (NET) [µM]	further results
NC(=O)C[S+]([O-])C(c1ccccc1)c1ccccc1 (racemic) [(±)-modafinil, 2-[(diphenylmethyl)sulfinyl]acetamide, reference compound]	> 100	–
CCCCNCC[S+]([O-])C(c1ccccc1)c1ccccc1 (stereo not shown) [Compound 5b, N-(2-(benzhydrylsulfinyl)ethyl)butan-1-amine]	–	SERT/DAT (DAT): 41
NC(=O)CSC(c1cccc(Cl)c1)c1cccc(Cl)c1 [Compound 2e, 2-((Bis(3-chlorophenyl)methyl)thio)acetamide]	–	NET/DAT (DAT): ≥ 123
O=C(CSC(c1ccccc1)c1ccccc1)N1CCN(CCCc2ccccc2)CC1 [Compound 11a, 2-(Benzhydrylthio)-1-(4-(3-phenylpropyl)piperazin-1-yl)ethan-1-one]	22.6 ± 3.01	–
